Results on two compounds are retold here after patent US4820834A, “Benzodiazepine analogs” (priority 1987, dated 1989).

Protein sequences, listed by entry. Tags and fused reporters are not part of them.
UniProt P30551, whole entry: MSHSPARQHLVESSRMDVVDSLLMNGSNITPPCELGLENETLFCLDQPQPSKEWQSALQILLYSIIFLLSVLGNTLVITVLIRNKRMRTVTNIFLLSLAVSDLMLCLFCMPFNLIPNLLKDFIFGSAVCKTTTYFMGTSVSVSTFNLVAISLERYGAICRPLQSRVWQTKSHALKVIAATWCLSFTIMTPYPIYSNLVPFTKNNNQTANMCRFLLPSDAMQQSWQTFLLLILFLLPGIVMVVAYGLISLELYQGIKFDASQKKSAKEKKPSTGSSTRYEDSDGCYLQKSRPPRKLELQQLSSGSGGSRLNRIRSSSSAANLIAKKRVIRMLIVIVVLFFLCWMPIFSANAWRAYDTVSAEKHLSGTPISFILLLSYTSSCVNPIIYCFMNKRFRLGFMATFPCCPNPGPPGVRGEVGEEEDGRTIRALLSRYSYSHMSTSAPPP

This assay deals with T1, CCK receptor (pancreas) (Rattus norvegicus, UniProt P30551).
T1 construct: The whole pancreas was dissected free of fat tissue and was homogenized; from tissue; host or cells: rat pancreas membranes (Sprague-Dawley)
The experiment in a line: CCK Receptor Binding (Pancreas): inhibition of ^125 I-CCK-33 binding. Also noted: species or system Male Sprague-Dawley rats. The settings on record: rat pancreas membranes, ^125 I-CCK-33, 37° C., 30 minutes. How it is done: 1. CCK Receptor Binding (Pancreas)
CCK-33 was radiolabeled with ^125 I-Bolton Hunter reagent (2000 Ci/mmole) as described by Sankara et al. (J. Biol. Chem. 254: 9349-9351, 1979). Receptor binding was performed according to Innis and Snyder (Proc. Natl. Acad. Sci. 77: 6917-6921, 1980) with the minor modification of adding the additional protease inhibitors, phenylmethane sulfonyl fluoride and o-phenanthroline.
Male Sprague-Dawley rats (200-350 g) were sacrificed by decapitation. The whole pancreas was dissected free of fat tissue and was homogenized in 20 volumes of ice-cold 50 mM, Tris HCl (pH 7.7 at 25° C.) with a Brinkmann Polytron PT 10. The homogenates were centrifuged at 48,000 g for 10 min. Pellets were resuspended in Tris Buffer, centrifuged as above and resuspended in 200 volumes of binding assay buffer (50 mM Tris HCl, pH 7.7 at 25° C., 5 mM dithiothrietol, 0.1 mM bacitracin, 1.2 mM phenylmethane sulfonyl fluoride and 0.5 mM o-phenanthroline). […] All assays were run in duplicate or triplicate. The reaction mixtures were incubated at 37° C. for 30 minutes and centrifuged in a Beckman Microfuge (4 minutes) immediately after adding 1 ml of ice-cold incubation buffer. The supernatant was aspirated and discarded, pellets were counted with a Beckman gamma 5000. […]

As a reminder, the IC50 is the concentration that gives 50% inhibition. Low readings indicate higher potency, high ones lower potency. In turn, `CN1C(=O)[C@@H](NC(=O)c2ccccc2Br)N=C(c2ccccc2F)c2ccccc21` [Example 161, 3(S)-(-)-3-(2-Bromobenzoylamino)-1,3-dihydro-5-(2-fluorophenyl)-1-methyl-2H-1,4-benzodiazepin-2-one] returned an IC50 of 6.2 µM.

With `CN1C(=O)[C@H](NC(=O)c2ccccc2Br)N=C(c2ccccc2F)c2ccccc21` [Example 171, 3(R)-(+)-3-(2-Bromobenzoylamino)-1,3-dihydro-5-(2-fluorophenyl)-1-methyl-2H-1,4-benzodiazepin-2-one], the IC50 came out at 9 µM.
